# Experimental data as given in paper PMC2222611, “Species-specific pharmacology of Trichloro(sulfanyl)ethyl benzamides as transient receptor potential ankyrin 1 (TRPA1) antagonists” (2007).
# Protein sequences, listed by entry. Tags and fused reporters are not part of them.
# UniProt O75762, whole entry, looked up: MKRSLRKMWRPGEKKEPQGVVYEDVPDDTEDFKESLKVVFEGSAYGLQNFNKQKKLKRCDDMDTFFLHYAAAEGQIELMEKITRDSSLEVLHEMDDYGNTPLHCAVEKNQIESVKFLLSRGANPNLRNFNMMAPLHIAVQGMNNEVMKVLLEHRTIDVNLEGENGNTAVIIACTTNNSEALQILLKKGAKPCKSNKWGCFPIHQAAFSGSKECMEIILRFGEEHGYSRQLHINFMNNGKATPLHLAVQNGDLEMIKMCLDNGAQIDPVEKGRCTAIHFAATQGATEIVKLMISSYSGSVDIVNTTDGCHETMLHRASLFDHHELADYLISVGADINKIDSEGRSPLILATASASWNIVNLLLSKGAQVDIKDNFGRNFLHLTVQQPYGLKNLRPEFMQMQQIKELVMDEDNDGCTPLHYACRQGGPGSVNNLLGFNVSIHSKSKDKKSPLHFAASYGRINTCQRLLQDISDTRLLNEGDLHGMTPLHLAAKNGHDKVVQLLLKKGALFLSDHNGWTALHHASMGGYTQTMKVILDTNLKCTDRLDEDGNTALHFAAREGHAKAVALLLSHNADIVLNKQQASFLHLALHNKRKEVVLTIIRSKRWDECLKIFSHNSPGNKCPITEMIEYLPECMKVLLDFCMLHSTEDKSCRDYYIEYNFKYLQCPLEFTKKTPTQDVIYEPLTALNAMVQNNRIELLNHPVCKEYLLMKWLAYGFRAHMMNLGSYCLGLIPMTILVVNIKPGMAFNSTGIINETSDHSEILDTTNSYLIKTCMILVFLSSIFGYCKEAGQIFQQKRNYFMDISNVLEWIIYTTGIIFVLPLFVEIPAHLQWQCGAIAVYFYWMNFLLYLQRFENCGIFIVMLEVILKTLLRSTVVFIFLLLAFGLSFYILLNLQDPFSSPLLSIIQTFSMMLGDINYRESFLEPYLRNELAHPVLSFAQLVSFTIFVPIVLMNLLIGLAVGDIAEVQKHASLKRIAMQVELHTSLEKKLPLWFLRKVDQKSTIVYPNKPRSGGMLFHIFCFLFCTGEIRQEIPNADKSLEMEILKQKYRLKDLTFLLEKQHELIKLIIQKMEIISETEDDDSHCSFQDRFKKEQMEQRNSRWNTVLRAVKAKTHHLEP
# UniProt Q8NER1, whole entry, looked up: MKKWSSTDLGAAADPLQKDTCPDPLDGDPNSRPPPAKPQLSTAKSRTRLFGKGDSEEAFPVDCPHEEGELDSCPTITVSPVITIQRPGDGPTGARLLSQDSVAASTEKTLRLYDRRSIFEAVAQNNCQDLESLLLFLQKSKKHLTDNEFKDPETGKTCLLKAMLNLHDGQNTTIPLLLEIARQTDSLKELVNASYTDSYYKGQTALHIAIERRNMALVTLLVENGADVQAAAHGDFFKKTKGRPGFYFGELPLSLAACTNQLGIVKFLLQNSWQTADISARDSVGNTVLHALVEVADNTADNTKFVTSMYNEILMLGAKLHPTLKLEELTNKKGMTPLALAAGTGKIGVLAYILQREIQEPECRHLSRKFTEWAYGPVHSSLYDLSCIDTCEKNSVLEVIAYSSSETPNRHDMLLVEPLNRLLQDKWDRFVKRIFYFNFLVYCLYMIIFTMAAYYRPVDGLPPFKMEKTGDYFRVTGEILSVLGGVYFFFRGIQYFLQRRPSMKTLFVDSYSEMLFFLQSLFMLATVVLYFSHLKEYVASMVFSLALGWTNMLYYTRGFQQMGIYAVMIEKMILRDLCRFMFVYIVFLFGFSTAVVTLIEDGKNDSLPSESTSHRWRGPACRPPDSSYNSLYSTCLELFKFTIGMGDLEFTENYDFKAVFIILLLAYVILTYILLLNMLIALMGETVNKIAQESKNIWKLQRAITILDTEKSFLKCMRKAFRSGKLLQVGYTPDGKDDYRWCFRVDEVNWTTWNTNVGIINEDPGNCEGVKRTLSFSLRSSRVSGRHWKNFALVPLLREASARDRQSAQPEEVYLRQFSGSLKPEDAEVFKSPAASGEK
# UniProt Q6RI86, whole entry, looked up: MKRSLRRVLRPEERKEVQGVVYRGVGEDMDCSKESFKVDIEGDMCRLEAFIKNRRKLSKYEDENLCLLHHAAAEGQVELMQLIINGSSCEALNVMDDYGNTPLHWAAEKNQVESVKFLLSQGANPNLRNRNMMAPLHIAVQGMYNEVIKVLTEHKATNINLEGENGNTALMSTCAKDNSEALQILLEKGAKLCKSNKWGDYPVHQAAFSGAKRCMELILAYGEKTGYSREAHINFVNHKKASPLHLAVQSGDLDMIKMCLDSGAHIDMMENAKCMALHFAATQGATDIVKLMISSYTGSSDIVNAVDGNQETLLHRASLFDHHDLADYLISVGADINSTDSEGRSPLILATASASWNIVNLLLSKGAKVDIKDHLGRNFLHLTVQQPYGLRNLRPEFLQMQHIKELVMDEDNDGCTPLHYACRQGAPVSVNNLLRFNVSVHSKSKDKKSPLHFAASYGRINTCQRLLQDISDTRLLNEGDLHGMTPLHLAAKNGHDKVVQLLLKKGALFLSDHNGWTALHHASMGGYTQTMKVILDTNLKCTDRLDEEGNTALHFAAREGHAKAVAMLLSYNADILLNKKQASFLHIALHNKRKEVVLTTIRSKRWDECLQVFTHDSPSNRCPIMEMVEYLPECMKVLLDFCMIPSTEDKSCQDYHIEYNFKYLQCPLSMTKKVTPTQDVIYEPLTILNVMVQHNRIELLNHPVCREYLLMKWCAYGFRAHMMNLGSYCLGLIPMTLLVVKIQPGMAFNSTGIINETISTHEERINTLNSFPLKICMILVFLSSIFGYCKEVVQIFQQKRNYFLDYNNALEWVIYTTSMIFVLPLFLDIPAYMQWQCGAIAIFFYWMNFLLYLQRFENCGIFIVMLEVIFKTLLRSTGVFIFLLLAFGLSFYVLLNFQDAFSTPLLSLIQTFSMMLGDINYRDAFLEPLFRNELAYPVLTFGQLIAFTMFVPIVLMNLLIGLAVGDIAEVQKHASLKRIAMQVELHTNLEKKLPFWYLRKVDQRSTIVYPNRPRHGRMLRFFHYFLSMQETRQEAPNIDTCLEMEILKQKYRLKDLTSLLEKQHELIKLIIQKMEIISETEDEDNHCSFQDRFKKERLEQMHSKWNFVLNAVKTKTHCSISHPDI
# Assays:
# hTRPA1 [1] = target: T1, hTRPA1 (Homo sapiens, UniProt O75762); test: Whole-cell voltage-clamp electrophysiology (PatchXpress 7000A) in CHO cells expressing hTRPA1; settings: read-out: IC50 for inhibition of AITC-induced currents, human TRPA1, 80 μM AITC, holding potential -70 mV
# hTRPA1 [2] = target: T1, hTRPA1; test: Cold antagonism assay (45Ca2+ uptake) in CHO cells expressing human TRPA1; settings: read-out: IC50 for inhibition of noxious cold-induced 45Ca2+ uptake, human TRPA1, cold 3.5°C (legends: 4°C)
# hTRPA1 [3] = target: T1, hTRPA1; test: Aequorin luminescence readout assay for intracellular calcium in CHO cells expressing human TRPA1; settings: read-out: IC50 for inhibition of AITC activation of human TRPA1 (increase in intracellular calcium), 80 μM AITC
# hTRPV1 = hTRPV1 (Homo sapiens, UniProt Q8NER1); test: Aequorin luminescence selectivity assay, capsaicin-activated TRPV1 in CHO cells; settings: read-out: IC50, inhibition of capsaicin activation of hTRPV1, 0.5 μM capsaicin, evaluated up to 5 μM
# rat TRPA1 = rat TRPA1 (Rattus norvegicus, UniProt Q6RI86); test: Aequorin luminescence readout assay for intracellular calcium in CHO cells expressing rat TRPA1; settings: for IC50: read-out: IC50 for inhibition of AITC-induced increase in intracellular calcium, rat TRPA1, 80 μM AITC, marginal inhibition; for agonism at rat TRPA1 (increase in intracellular calcium by compound alone): up to 50 μM; for agonism at rat TRPA1 (increase in intracellular calcium by compound alone) / maximum efficacy at rat TRPA1 compared to 80 μM AITC efficacy / EC50: compound alone; for maximum efficacy at rat TRPA1 compared to 80 μM AITC efficacy: relative to 80 μM AITC; for EC50: read-out: EC50 for increase in intracellular calcium at rat TRPA1 (partial agonism), CHO cells expressing rat TRPA1
# rTRPA1 = rTRPA1 (Rattus norvegicus, UniProt Q6RI86); test: Whole-cell voltage-clamp electrophysiology (PatchXpress 7000A) in CHO cells expressing rTRPA1
Structure (SMILES),IC50 (hTRPA1 [1]) [nM],IC50 (hTRPA1 [2]) [nM],IC50 (hTRPA1 [3]) [nM],IC50 (hTRPV1) [nM],IC50 (rat TRPA1) [nM],agonism at rat TRPA1 (increase in intracellular calcium by compound alone) (rat TRPA1),"block of currents generated by 80 μM AITC, rat TRPA1 (rTRPA1)","inward currents induced by compound alone, rat TRPA1 (rTRPA1)",maximum efficacy at rat TRPA1 compared to 80 μM AITC efficacy (rat TRPA1),EC50 (rat TRPA1) [nM]
O=C(NC(Sc1ccc(Cl)cc1)C(Cl)(Cl)Cl)c1ccc(Br)cc1 (centres unmarked),252,28,51,> 5000,> 30000,did not induce an increase in intracellular calcium,nor significantly blocked currents,neither inducing any inward currents by themselves,–,–
COc1ccc(C(=O)NC(Sc2ccc(Cl)cc2)C(Cl)(Cl)Cl)cc1 (centres unmarked),260,29,91,–,–,–,–,induced inward currents,approximately 35%,115
O=C(NC(Sc1ccc(Cl)cc1)C(Cl)(Cl)Cl)c1ccc([N+](=O)[O-])cc1 (centres unmarked),167,105,35,> 5000,> 30000,did not induce an increase in intracellular calcium,nor significantly blocked currents,neither inducing any inward currents by themselves,–,–
O=C(NC(Sc1ccc(Cl)cc1)C(Cl)(Cl)Cl)c1ccccc1 (centres unmarked),120,7,21,> 5000,–,–,–,induced inward currents,approximately 50%,66
